# Results taken from PubChem BioAssay AID602409 (Sanford-Burnham Center for Chemical Genomics, 2012).
# Protein sequences, listed by entry. Tags and fused reporters are not part of them. Lines headed by an entry give the natural chain unless they say otherwise; changes in a name come on top.
# UniProt O00574: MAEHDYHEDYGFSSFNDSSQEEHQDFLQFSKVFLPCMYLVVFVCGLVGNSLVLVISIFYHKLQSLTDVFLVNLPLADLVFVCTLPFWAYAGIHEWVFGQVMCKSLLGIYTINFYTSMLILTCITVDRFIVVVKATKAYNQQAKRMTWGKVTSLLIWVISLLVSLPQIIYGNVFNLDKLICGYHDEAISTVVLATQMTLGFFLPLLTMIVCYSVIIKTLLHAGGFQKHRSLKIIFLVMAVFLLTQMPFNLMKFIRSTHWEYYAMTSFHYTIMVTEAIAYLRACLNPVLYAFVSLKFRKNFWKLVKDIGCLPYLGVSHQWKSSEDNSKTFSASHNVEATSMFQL
# The entries are a selection whose mix differs from that of the whole data set. The source made the active and inactive calls.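 The calls were made as follows: active = mean inhibition over four retests above 40%; inactive = the rest.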
# Molecular target: C-X-C chemokine receptor type 6 (Homo sapiens) (UniProt O00574)
# Assay: CXCR6 receptor antagonists, confirmation, cell-based, single concentration, beta-arrestin, luminescence (AID 602409);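 also: receptor stimulated with 10 nM CXCL16 agonist; beta-galactosidase fragment complementation upon beta-arrestin recruitment to receptor; plate controls were CXCL16 plus DMSO for no effect and DMSO without CXCL16 for full effect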
# Conditions: CHO-K1 CXCR6 PathHunter beta-arrestin, at 20 µM, active compounds read high
row,Compound,inhibition
1,CN(C)C(=O)c1cc([N+](=O)[O-])cc2c1-c1c(cc([N+](=O)[O-])cc1[N+](=O)[O-])C2=O,active: 44.7%
2,O=c1c2cc([N+](=O)[O-])ccc2[nH]c2c([N+](=O)[O-])cc([N+](=O)[O-])cc12,active: 41.9%
3,CSc1ccc(Nc2c([N+](=O)[O-])cc([N+](=O)[O-])cc2[N+](=O)[O-])cc1,active: 49.2%
